This note sets out measurements from patent publication US20200397855A1, “MODULATION OF PLA2-G1B IN THERAPY” (priority 2018, published 2020).

Protein sequences, listed by entry. Tags and fused reporters are not part of them. Residues count along the entry.
UniProt Q07021, 74-282 limits assumed: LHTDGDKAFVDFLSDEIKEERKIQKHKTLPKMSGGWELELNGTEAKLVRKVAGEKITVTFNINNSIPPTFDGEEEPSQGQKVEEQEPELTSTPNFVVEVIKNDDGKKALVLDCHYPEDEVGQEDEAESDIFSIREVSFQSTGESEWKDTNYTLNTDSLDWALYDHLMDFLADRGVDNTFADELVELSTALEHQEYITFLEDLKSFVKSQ

Values joined by “and” are separate entries in the source; they are usually repeats but may differ in a detail not shown here. Equal values may be shown once.

In this assay the target is gC1qR at the surface of human CD4 T cells / Jurkat E6.1 T cells (human) (UniProt Q07021). In words: cell-based or functional assay.

Regarding “Complement component C1q from human serum (Sigma C1740) (from UniProt P02745 23-245; P02746 28-253; P02747 29-245) (ligand)”, the inhibition of pSTAT5 NT in CD4 T cells by C1q alone is 40%; the inhibition of pSTAT5 NT in CD4 T cells by C1q with PLA2-GIB is 75% and 85%.
